For the assay, the target named is CXCR7 (UniProt P25106).

By UniProt entry, the sequences of proteins in these tests, tags left out. Where a name states a change or a piece, a line headed by the entry shows the natural chain unless it says otherwise. Residues count along the entry.
UniProt P25106: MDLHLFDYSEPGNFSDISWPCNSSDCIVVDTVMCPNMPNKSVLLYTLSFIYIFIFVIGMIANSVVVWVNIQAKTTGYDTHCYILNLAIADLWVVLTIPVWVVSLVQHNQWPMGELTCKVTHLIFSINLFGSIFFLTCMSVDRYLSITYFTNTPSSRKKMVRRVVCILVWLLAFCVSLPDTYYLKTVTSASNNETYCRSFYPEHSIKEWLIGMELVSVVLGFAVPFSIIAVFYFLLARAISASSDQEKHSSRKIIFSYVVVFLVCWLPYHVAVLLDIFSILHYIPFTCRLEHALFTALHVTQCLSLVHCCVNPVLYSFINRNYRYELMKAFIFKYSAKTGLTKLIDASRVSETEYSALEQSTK
UniProt P48061, 22-89: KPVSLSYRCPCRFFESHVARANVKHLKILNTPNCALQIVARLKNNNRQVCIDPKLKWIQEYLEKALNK

In the case of “SDF1α (from UniProt P48061-2 22-89) (ligand)”, the β-arrestin signaling (agonism EC50), PathHunter CHO-K1 CXCR7 β-arrestin cells came to 22.5 nM.

The values above are taken from publication doi:10.1101/2025.05.28.656709.
